The assay addresses T1, Progesterone receptor (Homo sapiens) (UniProt P06401).
T1 sequence (whole entry): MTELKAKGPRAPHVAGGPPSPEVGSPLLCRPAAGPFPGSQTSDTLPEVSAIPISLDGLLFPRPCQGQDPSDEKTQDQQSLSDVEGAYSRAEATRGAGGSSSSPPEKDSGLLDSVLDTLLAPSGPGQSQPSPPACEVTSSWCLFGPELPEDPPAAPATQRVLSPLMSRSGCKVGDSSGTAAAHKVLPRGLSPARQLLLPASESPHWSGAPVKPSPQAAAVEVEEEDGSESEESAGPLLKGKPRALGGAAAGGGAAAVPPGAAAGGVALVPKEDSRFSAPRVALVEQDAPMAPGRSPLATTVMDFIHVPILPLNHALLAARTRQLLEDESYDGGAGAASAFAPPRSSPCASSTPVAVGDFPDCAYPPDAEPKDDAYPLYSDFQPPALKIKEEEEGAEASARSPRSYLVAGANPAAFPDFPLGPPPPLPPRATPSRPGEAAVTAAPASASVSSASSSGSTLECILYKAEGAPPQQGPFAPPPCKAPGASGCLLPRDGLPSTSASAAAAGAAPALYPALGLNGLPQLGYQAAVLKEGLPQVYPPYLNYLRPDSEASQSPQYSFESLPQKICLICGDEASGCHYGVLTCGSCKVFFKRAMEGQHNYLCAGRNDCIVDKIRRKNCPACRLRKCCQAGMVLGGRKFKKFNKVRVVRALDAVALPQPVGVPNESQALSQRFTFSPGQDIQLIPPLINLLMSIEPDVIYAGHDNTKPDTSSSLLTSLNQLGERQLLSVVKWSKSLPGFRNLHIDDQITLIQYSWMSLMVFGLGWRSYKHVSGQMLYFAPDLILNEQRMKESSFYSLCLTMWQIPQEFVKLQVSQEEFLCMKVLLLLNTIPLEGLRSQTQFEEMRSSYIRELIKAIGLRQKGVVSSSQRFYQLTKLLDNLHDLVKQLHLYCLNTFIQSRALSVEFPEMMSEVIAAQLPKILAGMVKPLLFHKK
The experiment in a line: Binding affinity to progesterone receptor relative to R5020.
`C[C@@]1(CCCF)OC(=S)Nc2ccc(-c3ccc(C#N)[nH]3)cc21` gave a relative binding affinity (RBA) of 189.
`Cn1c(C#N)ccc1-c1ccc2c(c1)C(C)(C)OC(=S)N2` registered a relative binding affinity (RBA) of 151.
Under `CC1(CCCF)OC(=S)Nc2ccc(-c3ccc(C#N)[nH]3)cc21` (racemic) stands 189.
As for `Cn1c(C#N)ccc1-c1ccc2c(c1)C(C)(CCCF)OC(=S)N2` (racemic), the relative binding affinity (RBA) is 90.9.
Under `Cn1c(C#N)ccc1-c1ccc2c(c1)[C@](C)(CCF)OC(=S)N2` stands 151.
Molecule `CC1(CCF)OC(=S)Nc2ccc(-c3ccc(C#N)[nH]3)cc21` (racemic) came in with a relative binding affinity (RBA) of 198.
In turn, `C[C@@]1(CCF)OC(=S)Nc2ccc(-c3ccc(C#N)[nH]3)cc21` showed a relative binding affinity (RBA) of 198.
To `Cn1c(C#N)ccc1-c1ccc2c(c1)[C@](C)(CCCF)OC(=S)N2` belongs 90.9; to `Cn1c(C#N)ccc1-c1ccc2c(c1)C(C)(CCF)OC(=S)N2` (racemic), 151.

These data come from ChEMBL document CHEMBL1157104, “Imaging progesterone receptor in breast tumors: synthesis and receptor binding affinity of fluoroalkyl-substituted analogues of tanaproget” (J Med Chem, 2010).
